According to patent publication US10202378B2, “Therapeutic compounds and uses thereof” (GENENTECH, INC., priority 2015, dated 2019):

Assays:
TAF1-BD1 = TAF1-BD1 (Homo sapiens, UniProt P21675); experiment: TAF1-BD1 TR-FRET Binding Assay; conditions: read-out: TAF1-BD1 HTRF IC50
Experimental: IC50 Measurements for Inhibitors Using TAF1-BD1 TR-FRET Binding Assay
His/Flag epitope tagged TAF1-BD11381-1497 was cloned, expressed, and purified to homogeneity. TAF1-BD binding and inhibition was assessed by monitoring the engagement of a biotinylated small molecule compound 1000 with the target using the TR-FRET assay technology (Perkin-Elmer). Specifically, in a 384 well ProxiPlate, TAF1-BDI (0.08 uM final) in 50 mM HEPES (pH 7.5; final), 50 mM NaCl (final), 1 mM TCEP (final), 0.1 mg/mL BSA (final), and 0.069 mM Brij-35 (final) was added either in the presence of DMSO (final 0.2% DMSO) or compound dilution series in DMSO. After a 10 minute incubation at room temperature, biotin-ligand (0.08 uM final) was added. After 10 minutes incubation at room temperature, a mixture Eu-W1024 Anti-6×His antibody (Perkin Elmer ADO 110) and SureLight™ Streptavidin-Allophycocyanin (SA-APC, Perkin Elmer CR130-100) were added to final concentrations of 0.2 nM antibody and 0.05 uM SA-APC, respectively. After forty minutes of equilibration at room temperature, the plates were read on an Envision instrument and IC50s calculated using a four parameter logistic model (XLFIT).

TAF1-BD2 = TAF1-BD2 (Homo sapiens, UniProt P21675); experiment: TAF1-BD2 TR-FRET Binding Assay; conditions: read-out: TAF1-BD2 HTRF IC50
Experimental: IC50 Measurements for Inhibitors Using TAF1-BD2 TR-FRET Binding Assay
His/Flag epitope tagged TAF1-BD21504-1635 was cloned, expressed, and purified to homogeneity. TAF1-BD2 binding and inhibition was assessed by monitoring the engagement of a biotinylated small molecule compound 1000 with the target using the TR-FRET assay technology (Perkin-Elmer). Specifically, in a 384 well ProxiPlate, TAF1-BD2 (0.012 uM final) in 50 mM HEPES (pH 7.5; final), 50 mM NaCl (final), 1 mM TCEP (final), 0.1 mg/mL BSA (final), and 0.069 mM Brij-35 (final) was added either in the presence of DMSO (final 0.2% DMSO) or compound dilution series in DMSO. After a 10 minute incubation at room temperature, biotin-ligand (0.04 uM final) was added. After 10 minutes incubation at room temperature, a mixture Eu-W1024 Anti-6×His antibody (Perkin Elmer AD0110) and SureLight™ Streptavidin-Allophycocyanin (SA-APC, Perkin Elmer CR130-100) were added to a final concentration of 0.2 nM antibody and 0.025 uM SA-APC, respectively. After forty minutes of equilibration at room temperature, the plates were read on an Envision instrument and IC50s calculated using a four parameter logistic model (XLFIT).

SMILES: Cc1[nH]c2c(=O)n(C)cc(C#CC(O)(c3ccccc3)C(F)(F)F)c2c1-c1nnc(C(C)C)o1 (single isomer, unassigned) [Example 94a, 3-(5-isopropyl-1,3,4-oxadiazol-2-yl)-2,6-dimethyl-4-(4,4,4-trifluoro-3-hydroxy-3-phenyl-but-1-ynyl)-1H-pyrrolo[2,3-c]pyridin-7-one]
IC50 (TAF1-BD1): 0.192 µM

SMILES: Cc1[nH]c2c(=O)n(C)cc(C#CC(O)(c3ccccc3)C(F)(F)F)c2c1-c1nnc(C(C)C)o1 (single isomer, unassigned) [Example 94b, 3-(5-isopropyl-1,3,4-oxadiazol-2-yl)-2,6-dimethyl-4-(4,4,4-trifluoro-3-hydroxy-3-phenyl-but-1-ynyl)-1H-pyrrolo[2,3-c]pyridin-7-one]
IC50 (TAF1-BD2): 0.126 µM | IC50 (TAF1-BD1): 0.949 µM

SMILES: CCOC(=O)c1c(C)[nH]c2c(=O)n(C)cc(C#CC(C)(O)Cc3ccccc3)c12 (stereo not drawn) [Example 16, ethyl 4-(3-hydroxy-3-methyl-4-phenyl-but-1-ynyl)-2,6-dimethyl-7-oxo-1H-pyrrolo[2,3-c]pyridine-3-carboxylate]
IC50 (TAF1-BD2): 0.0388 µM | IC50 (TAF1-BD1): 0.212 µM

SMILES: CCOC(=O)c1c(C)[nH]c2c(=O)n(C)cc(C#CC(C)(O)c3ccncc3)c12 (stereo not drawn) [Example 27, ethyl 4-[3-hydroxy-3-(4-pyridyl)but-1-ynyl]-2,6-dimethyl-7-oxo-1H-pyrrolo[2,3-c]pyridine-3-carboxylate]
IC50 (TAF1-BD2): 0.0899 µM | IC50 (TAF1-BD1): 0.338 µM

SMILES: CCOC(=O)c1c(C)[nH]c2c(=O)n(C)cc(C#CC3(O)CCOC3)c12 (stereo not drawn) [Example 31]
IC50 (TAF1-BD2): 0.0408 µM | IC50 (TAF1-BD1): 0.511 µM

SMILES: CCOC(=O)c1c(C)[nH]c2c(=O)n(C)cc(C#C[C@@](C)(O)c3cc(C)on3)c12 [Example 38, ethyl 4-[(3R)-3-hydroxy-3-(5-methylisoxazol-3-yl)but-1-ynyl]-2,6-dimethyl-7-oxo-1H-pyrrolo[2,3-c]pyridine-3-carboxylate]
IC50 (TAF1-BD1): 0.136 µM

SMILES: Cc1[nH]c2c(=O)n(C)cc(C#CC(C)(O)C3CC3)c2c1-c1nnc(CN(C)C)o1 (stereo not drawn) [Example 185, 4-(3-cyclopropyl-3-hydroxy-but-1-ynyl)-3-[5-[(dimethylamino)methyl]-1,3,4-oxadiazol-2-yl]-2,6-dimethyl-1H-pyrrolo[2,3-c]pyridin-7-one]
IC50 (TAF1-BD1): 0.324 µM

The remaining lines, values ahead:

IC50 (TAF1-BD2): 0.143 µM | IC50 (TAF1-BD1): 0.92 µM
SMILES: Cc1[nH]c2c(=O)n(C)cc(C#CC(O)(c3ccccc3)C(F)(F)F)c2c1-c1nnc(CN(C)C)o1 (single isomer, unassigned) [Example 95a, 3-[5-[(dimethylamino)methyl]-1,3,4-oxadiazol-2-yl]-2,6-dimethyl-4-(4,4,4-trifluoro-3-hydroxy-3-phenyl-but-1-ynyl)-1H-pyrrolo[2,3-c]pyridin-7-one]

IC50 (TAF1-BD1): 0.211 µM
SMILES: Cc1[nH]c2c(=O)n(C)cc(C#CC(O)(c3ccccc3)C(F)(F)F)c2c1-c1nnc(CN(C)C)o1 (single isomer, unassigned) [Example 95b, 3-[5-[(dimethylamino)methyl]-1,3,4-oxadiazol-2-yl]-2,6-dimethyl-4-(4,4,4-trifluoro-3-hydroxy-3-phenyl-but-1-ynyl)-1H-pyrrolo[2,3-c]pyridin-7-one]

IC50 (TAF1-BD2): 0.385 µM | IC50 (TAF1-BD1): 1.24 µM
SMILES: Cc1[nH]c2c(=O)n(C)cc(C#CC(C)(O)C3CC3)c2c1-c1nnc(CN(C)C)o1 (single isomer, unassigned) [Example 97a, 4-(3-cyclopropyl-3-hydroxy-but-1-ynyl)-3-[5-[(dimethylamino)methyl]-1,3,4-oxadiazol-2-yl]-2,6-dimethyl-1H-pyrrolo[2,3-c]pyridin-7-one]

IC50 (TAF1-BD2): 0.0308 µM | IC50 (TAF1-BD1): 0.205 µM
SMILES: Cc1[nH]c2c(=O)n(C)cc(C#CC(C)(O)C3CC3)c2c1-c1nnc(CN(C)C)o1 (single isomer, unassigned) [Example 97b, 4-(3-cyclopropyl-3-hydroxy-but-1-ynyl)-3-[5-[(dimethylamino)methyl]-1,3,4-oxadiazol-2-yl]-2,6-dimethyl-1H-pyrrolo[2,3-c]pyridin-7-one]

Each block holds one molecule with its values, some of them ahead of it.
